{
  "sequences": {"note": "Sequences of proteins named here, by UniProt entry; tags and fusion partners are left off. A change or cut given only in a name is not applied to a line headed by its entry.", "UniProt Q9NR56": "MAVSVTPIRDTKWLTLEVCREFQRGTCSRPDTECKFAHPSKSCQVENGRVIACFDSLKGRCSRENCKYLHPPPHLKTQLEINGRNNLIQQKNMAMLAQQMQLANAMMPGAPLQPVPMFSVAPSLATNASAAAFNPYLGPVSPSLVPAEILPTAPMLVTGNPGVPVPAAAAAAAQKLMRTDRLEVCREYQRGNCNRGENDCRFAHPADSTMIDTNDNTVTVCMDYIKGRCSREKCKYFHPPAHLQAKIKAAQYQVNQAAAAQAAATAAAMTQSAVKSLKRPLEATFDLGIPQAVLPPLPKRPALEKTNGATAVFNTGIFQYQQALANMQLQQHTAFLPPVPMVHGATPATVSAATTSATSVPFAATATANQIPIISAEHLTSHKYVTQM"},
  "source": "PubChem BioAssay AID2675",
  "about": "(National Center for Advancing Translational Sciences (NCATS), 2010)",
  "note": "The campaign covered roughly 280,000 compounds. About 100 (0.036%) were called active. Only results without a clear call are listed here; the source files them as inconclusive. The call rests on the fitted dose curve; in most records, active means well fitted inhibition curve with a large enough effect in the signal ratio, with a control signal flat (not every such curve was filed as active); inconclusive means small, poorly fitted or top-dose-only effect, or effect the other way, or a change in a side signal; inactive means no such curve, though single readings can be large or run the other way; the % refers to the signal ratio. Potency means the concentration at half of the fitted maximal effect.",
  "data": [
    {"molecular_target": "Muscleblind-like protein 1 (Homo sapiens) (UniProt Q9NR56)", "test": "qHTS Assay for Inhibitors of MBNL1-poly(CUG) RNA binding", "conditions": "TR-FRET MBNL1-His/biotin-(CUG)12 binding, 665/545 ratio", "values": [
      {"smiles": "O=[N+]([O-])c1ccc(O)c(/C=N/Nc2ccc([N+](=O)[O-])cc2[N+](=O)[O-])c1", "Potency": "inconclusive: 31.6 µM"},
      {"smiles": "O=[N+]([O-])c1ncn(CCn2cnc([N+](=O)[O-])n2)n1", "Potency": "inconclusive: 17.8 µM"},
      {"smiles": "Nc1ccc([As](=O)(O)c2ccc([N+](=O)[O-])cc2)cc1", "Potency": "inconclusive: 17.8 µM"},
      {"smiles": "CC(C)C(=O)NC(Sc1ccccc1)C(Cl)(Cl)Cl", "note": "(stereo not given)", "Potency": "inconclusive: 28.2 µM"},
      {"smiles": "CC(=O)Nc1ccc(Oc2c([N+](=O)[O-])cc([N+](=O)[O-])cc2[N+](=O)[O-])cc1", "Potency": "inconclusive: 17.8 µM"},
      {"smiles": "O=c1c2cc([N+](=O)[O-])ccc2[nH]c2c([N+](=O)[O-])cc([N+](=O)[O-])cc12", "Potency": "inconclusive: 2.24 µM"},
      {"smiles": "O=[N+]([O-])c1cc([N+](=O)[O-])c(CCN2CCOCC2)c([N+](=O)[O-])c1", "Potency": "inconclusive: 14.1 µM"},
      {"smiles": "Nc1cccc2ccc([As](=O)(O)O)cc12", "Potency": "inconclusive: 22.4 µM"},
      {"smiles": "O=C(O)c1ccccc1[As](=O)(O)O", "Potency": "inconclusive: 100 µM"},
      {"smiles": "Nc1cc(N)c2nonc2c1[N+](=O)[O-]", "Potency": "inconclusive: 15.8 µM"},
      {"smiles": "O=[N+]([O-])c1cccc2n[nH]nc12", "Potency": "inconclusive: 17.8 µM"},
      {"smiles": "CCc1nc2c(n1)c1c(non1O)c1c2no[n+]1[O-]", "Potency": "inconclusive: 14.1 µM"},
      {"smiles": "O=[N+]([O-])c1cc([N+](=O)[O-])c(CCNc2ccccc2)c([N+](=O)[O-])c1", "Potency": "inconclusive: 12.6 µM"},
      {"smiles": "O=[N+]([O-])c1ncn(CCn2ncnc2[N+](=O)[O-])n1", "Potency": "inconclusive: 25.1 µM"},
      {"smiles": "O=[N+]([O-])c1cccc(NC2=NCC(CBr)S2)c1", "note": "(stereo not given)", "Potency": "inconclusive: 22.4 µM"},
      {"smiles": "Cc1cc(SC(NC(=O)c2ccccc2)C(Cl)(Cl)Cl)nc(C(C)C)n1", "note": "(stereo not given)", "Potency": "inconclusive: 35.5 µM"},
      {"smiles": "O=C(OC1CN2CCC1CC2)c1cccc([N+](=O)[O-])c1", "note": "(stereo not given)", "Potency": "inconclusive: 17.8 µM"},
      {"smiles": "CCC(C)N(CC(C)C)C(=S)SC(NC(C)=O)C(Cl)(Cl)Cl", "note": "(stereo not given)", "Potency": "inconclusive: 63.1 µM"},
      {"smiles": "O=C(Nc1ccncc1[N+](=O)[O-])c1ccc([N+](=O)[O-])cc1[N+](=O)[O-]", "Potency": "inconclusive: 11.2 µM"},
      {"smiles": "O=[N+]([O-])c1cc([N+](=O)[O-])c(-c2ccn[nH]2)s1", "Potency": "inconclusive: 2 µM"},
      {"smiles": "O=[N+]([O-])c1ccc2c(c1)nnn2O", "Potency": "inconclusive: 28.2 µM"},
      {"smiles": "Cc1ccc(NCCc2c([N+](=O)[O-])cc([N+](=O)[O-])cc2[N+](=O)[O-])cc1", "Potency": "inconclusive: 8.91 µM"},
      {"smiles": "Nc1cccc2c([As](=O)(O)O)cccc12", "Potency": "inconclusive: 14.1 µM"},
      {"smiles": "O=P1(Nc2ccccn2)COc2ccccc2OC1", "Potency": "inconclusive: 6.31 µM"},
      {"smiles": "O=P1(Nc2ccc(Br)cn2)COc2ccccc2OC1", "Potency": "inconclusive: 3.55 µM"}
    ]}
  ]
}
